Results as given in patent US20110281933A1, “METHODS AND COMPOSITIONS FOR THE MANAGEMENT OF CARDIOVASCULAR DISEASE WITH OLIGONUCLEOTIDES” (Saint Louis University, priority 2010, published 2011).

System: C57BL/6 mice on 1% cholesterol, 0.5% cholate diet
Assay: Simvastatin and cholate diet induced liver damage (Example 8)
Settings: 50 mpk simvastatin vs saline

For `CCC(C)(C)C(=O)O[C@H]1C[C@@H](C)C=C2C=C[C@H](C)[C@H](CC[C@@H]3C[C@@H](O)CC(=O)O3)[C@H]21` [simvastatin], the “reduction of hepatic A1p8b1 levels” value was roughly 40%.
